{"source": "paper PMC9907720", "about": "(Antiviral research, 2022)", "test_system": "AD169 virus", "assay": "Time-of-addition assay", "settings": "10 μM added at −60, 0, 15, 30, 60, 90 mpi; NHDF; anti-IE1 at 24 hours", "data": [{"smiles": "Cc1nc(Nc2ccc(NC(=O)c3ccco3)cc2)cc(N2CCCC2)n1", "note": "[MBX-4992]", "values": [{"measurement": "time of addition at which infection is prevented", "result": "most effective at preventing infection when introduced between −60 min prior to infection to 30 mpi"}]}]}
